Assay results taken from patent US5942495A, “Antibiotics” (BTG International Limited, priority 1997, dated 1999).

System: human erythrocytes
Test: In vitro toxicity (haemolysis of human erythrocytes)
Format: cell-based
Details: 0.5 h
Description: Toxicity of compounds in vitro against animal cells was determined using standard for polyene macrolides procedure, by the determination of the degree of haemolysis of human erythrocytes. Human erythrocytes isolated from fresh, citrated human blood were washed twice with cold saline. The cells were diluted 250 times with saline and equilibrated for 30 minutes at 37° C. Samples of erythrocytes were incubated with various concentrations of antibiotics (the base solution in DMF) for 30 minutes at 37° C. After centrifugation the lysis of erythrocytes was assessed by determination of the haemoglobin released to the solution. Optical density of the supernatant was measured at […]. The results were expressed by EH50 value, as concentration of antibiotic at which 50% of hemolysis occurred. The values of EH50 were read from a curve relating the degree of hemolysis with antibiotic dose.

N-methyl-N-D-fructosylamphotericin B methyl ester [Example IX]
EH50 (concentration at which 50% of hemolysis occurred): above 200 μg/ml
